The record followed here is US6936585B2, “Corticotropin releasing factor 2 receptor agonists” (priority 2002, dated 2005).

The target of this test is T1, CRF2R (Homo sapiens, UniProt Q13324).
T1 sequence (Q13324 1-411): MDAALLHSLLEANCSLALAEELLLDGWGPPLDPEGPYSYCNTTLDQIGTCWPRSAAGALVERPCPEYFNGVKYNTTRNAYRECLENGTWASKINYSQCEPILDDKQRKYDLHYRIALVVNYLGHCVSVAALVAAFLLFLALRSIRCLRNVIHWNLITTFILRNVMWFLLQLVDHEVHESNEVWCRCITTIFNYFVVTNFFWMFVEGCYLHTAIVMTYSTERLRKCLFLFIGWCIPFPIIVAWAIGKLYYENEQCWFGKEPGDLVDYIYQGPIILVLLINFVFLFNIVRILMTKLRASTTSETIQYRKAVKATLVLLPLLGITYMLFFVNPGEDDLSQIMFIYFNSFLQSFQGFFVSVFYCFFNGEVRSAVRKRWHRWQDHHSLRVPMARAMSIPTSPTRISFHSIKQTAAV
Briefly: CRF2R agonist activation (EC50 / Emax), called comparative CRF binding. It is filed as cell-based. The note with it: read-out: CRF2R Emax. An excerpt:
The pharmacological activity and selectivity of the peptides of present invention can be determined using published test procedures. See, e.g, U.S. patent application Ser. No. 09/799,978 (now issued U.S. Pat. No. 6,670,140). Because CRF2R and CRF1R are homologous proteins, it is expected that a certain proportion of agonists for CRF2R will also function as agonists of CRF1R. As discussed above, activation of CRF1R induces activation of the HPA axis since increased corticosteroid production leads to skeletal muscle atrophy. In most cases in which an increase in muscle mass or function is desired, it is not desirable to activate the HPA axis.
Cell-based assays include the steps of contacting cells which express CRF1R or CRF2R with a peptide of the present invention or control and measuring activation of the CRFR by measuring the expression or activity of components of the CRFR signal transduction pathways.
For example, after contact with a peptide of the present invention, lysates of the cells can be prepared and assayed for induction of cAMP. cAMP is induced in response to Gαs activation. Because Gαs is activated by receptors other than CRFR and because a test peptide may be exerting its effect through CRFRs or by another mechanism, two control comparisons are relevant for determining whether the peptide increases levels of cAMP via activation of a CRFR. One control compares the cAMP level of cells contacted with the peptide and the cAMP level of cells contacted with a control compound (i.e., the vehicle in which the peptide is dissolved).
In one example, cAMP induction is measured with the use of DNA constructs containing the cAMP responsive element linked to any of a variety of reporter genes can be introduced into cells expressing CRFRs. Such reporter genes include, but are not limited to, chloramphenicol acetyltransferase (CAT), luciferase, glucuronide synthetase, growth hormone, fluorescent proteins (e.g., Green Fluorescent Protein), or alkaline phosphatase. Following exposure of the cells to the peptide, the level of reporter gene expression can be quantitated to determine the peptide's ability to increase cAMP levels and thus determine the peptide's ability to activate the CRFR.
In addition to using cells expressing full length CRFRs, cells can be engineered which express CRFRs containing the ligand binding domain of the receptor coupled to, or physically modified to contain, reporter elements or to interact with signaling proteins. For example, a wild type CRFR or CRFR fragment can be fused to a G-protein resulting in activation of the fused G-protein upon agonist binding to the CRFR portion of the fusion protein. […] In addition, alternative pathways for induction of the CRE reporter could be eliminated to reduce basal levels.
As for `CC[C@H](C)[C@H](NC(=O)[C@@H](NC(=O)[C@H](CC(=O)O)NC(=O)[C@H](CC(C)C)NC(=O)[C@H](CC(C)C)NC(=O)[C@H](CC(C)C)NC(=O)[C@H](CCCNC(=N)N)NC(=O)[C@H](CC(N)=O)NC(=O)[C@H](CC(N)=O)NC(=O)[C@H](C)NC(=O)[C@H](C)NC(=O)[C@H](CCC(N)=O)NC(=O)[C@H](CCC(N)=O)NC(=O)[C@H](CCCCN)NC(=O)[C@H](CCC(=O)O)NC(=O)[C@H](CCCCN)NC(=O)[C@H](CCC(=O)O)NC(=O)[C@H](CCC(N)=O)NC(=O)[C@H](CCCCN)NC(=O)[C@H](CCC(=O)O)NC(=O)[C@@H](NC(=O)[C@H](CCC(=O)O)NC(=O)[C@@H](NC(=O)[C@H](CCSC)NC(=O)[C@H](CCCCN)NC(=O)[C@H](CCCNC(=N)N)NC(=O)[C@H](CC(C)C)NC(=O)[C@H](CC(C)C)NC(=O)[C@H](C)NC(=O)[C@@H](NC(=O)[C@@H]1CCCN1C(=O)[C@H](CC(C)C)NC(=O)[C@H](CC(=O)O)NC(=O)[C@@H](NC(=O)[C@H](CO)NC(=O)[C@@H](NC(=O)[C@@H]1CCCN1C(=O)[C@@H]1CCCN1C(=O)CNC(=O)[C@@H]1CCC(=O)N1)[C@@H](C)CC)[C@@H](C)CC)[C@@H](C)O)[C@@H](C)CC)[C@@H](C)CC)[C@@H](C)O)C(N)=O` [compound 301], the Emax was found to be 88.4%.
As to `CC[C@H](C)[C@H](NC(=O)[C@H](CCC(=O)O)NC(=O)[C@@H](NC(=O)[C@H](CCSC)NC(=O)[C@H](CCCCN)NC(=O)[C@H](CCCNC(=N)N)NC(=O)[C@H](CC(C)C)NC(=O)[C@H](CC(C)C)NC(=O)[C@H](CCC(N)=O)NC(=O)[C@H](Cc1ccc(O)cc1)NC(=O)[C@@H]1CCCN1C(=O)[C@H](CC(C)C)NC(=O)[C@H](CC(=O)O)NC(=O)[C@@H](NC(=O)[C@H](CO)NC(=O)[C@@H](NC(=O)[C@@H]1CCCN1C(=O)[C@@H]1CCCN1C(=O)CNC(=O)[C@@H]1CCC(=O)N1)[C@@H](C)CC)[C@@H](C)CC)[C@@H](C)CC)C(=O)N[C@@H](CCC(=O)O)C(=O)N[C@@H](CCCCN)C(=O)N[C@@H](CCC(N)=O)C(=O)N[C@@H](CCC(=O)O)C(=O)N[C@@H](CCCCN)C(=O)N[C@@H](CCC(=O)O)C(=O)N[C@@H](CCCCN)C(=O)N[C@@H](CCC(N)=O)C(=O)N[C@@H](CCC(N)=O)C(=O)N[C@@H](C)C(=O)N[C@@H](C)C(=O)N[C@@H](CC(N)=O)C(=O)N[C@@H](CC(N)=O)C(=O)N[C@@H](C)C(=O)N[C@@H](CCCNC(=N)N)C(=O)N[C@@H](CC(C)C)C(=O)N[C@@H](CC(C)C)C(=O)N[C@@H](C)C(=O)N[C@@H](CCCNC(=N)N)C(N)=O` [compound 287], the Emax was 100%.
As for `CC[C@H](C)[C@H](NC(=O)[C@@H](NC(=O)[C@H](CC(=O)O)NC(=O)[C@H](CC(C)C)NC(=O)[C@H](CC(C)C)NC(=O)[C@H](CC(C)C)NC(=O)[C@H](CCCNC(=N)N)NC(=O)[C@H](CC(N)=O)NC(=O)[C@H](CC(N)=O)NC(=O)[C@H](C)NC(=O)[C@H](C)NC(=O)[C@H](CCC(N)=O)NC(=O)[C@H](CCC(N)=O)NC(=O)[C@H](CCCCN)NC(=O)[C@H](CCC(=O)O)NC(=O)[C@H](CCCCN)NC(=O)[C@H](CCC(=O)O)NC(=O)[C@H](CCC(N)=O)NC(=O)[C@H](CCCCN)NC(=O)[C@H](CCC(=O)O)NC(=O)[C@@H](NC(=O)[C@H](CCC(=O)O)NC(=O)[C@@H](NC(=O)[C@H](CCSC)NC(=O)[C@H](CCCCN)NC(=O)[C@H](CCCNC(=N)N)NC(=O)[C@H](CC(C)C)NC(=O)[C@H](CC(C)C)NC(=O)[C@H](CCC(N)=O)NC(=O)[C@H](CCC(N)=O)NC(=O)[C@@H]1CCCN1C(=O)[C@H](CC(C)C)NC(=O)[C@H](CC(=O)O)NC(=O)[C@@H](NC(=O)[C@H](CO)NC(=O)[C@@H](NC(=O)[C@@H]1CCCN1C(=O)[C@@H]1CCCN1C(=O)CNC(=O)[C@@H]1CCC(=O)N1)[C@@H](C)CC)[C@@H](C)CC)[C@@H](C)CC)[C@@H](C)CC)[C@@H](C)O)C(N)=O` [compound 198], the figure is 100%.
